Assay results published in patent US7524639B2, “Assay for screening antipsychotic drugs” (priority 2003, dated 2009).

Protein sequences, listed by entry. Tags and fused reporters are not part of them.
UniProt P14842, whole entry: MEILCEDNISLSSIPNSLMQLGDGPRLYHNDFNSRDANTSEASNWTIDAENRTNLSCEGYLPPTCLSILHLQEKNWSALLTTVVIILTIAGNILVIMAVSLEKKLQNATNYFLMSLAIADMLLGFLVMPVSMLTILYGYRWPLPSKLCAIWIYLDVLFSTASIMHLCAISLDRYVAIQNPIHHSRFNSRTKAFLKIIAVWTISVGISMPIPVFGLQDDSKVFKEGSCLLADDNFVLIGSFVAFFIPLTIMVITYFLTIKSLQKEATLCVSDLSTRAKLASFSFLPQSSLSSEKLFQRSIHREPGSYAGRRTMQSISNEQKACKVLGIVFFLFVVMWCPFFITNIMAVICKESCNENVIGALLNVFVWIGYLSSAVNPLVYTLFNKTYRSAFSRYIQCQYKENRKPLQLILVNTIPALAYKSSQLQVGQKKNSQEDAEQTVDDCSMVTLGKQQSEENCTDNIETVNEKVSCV

Molecular target: T1, rat 5-HT2A receptor tagged with EGFP (Rattus norvegicus, UniProt P14842)
T1 construct: tagged at the C-terminus of the full-length rat 5-HT2A receptor (SR2-GFP); expressed in transfected cells; transiently transfected, differentiated N1E-115 cells (A2)
Test: Internalization of GFP-tagged 5-HT2A receptor in SB1 cells (HEK293 stable line), confocal fluorescence microscopy
Assay type: cell-based
Details: drug applied for 10 mins, cycloheximide present

OCCN1CCN(CCCN2c3ccccc3Sc3ccc(C(F)(F)F)cc32)CC1 [Fluphenazine]
Receptor internalization SB1 cells (pattern of internalization): Type C
